Activity calls are given as the source filed them. No cut-off for these calls is given here.
Columns and labels:
Assay type in all cases: cell-based
Conditions in all cases: Huh-7
[1] = molecular target: T1, G-protein coupled bile acid receptor 1 (Homo sapiens) (UniProt Q8TDU6); assay: Agonist activity at human TGR5 transfected in human HuH7 cells assessed as receptor transactivation at 1 uM by luciferase reporter gene assay
T1 sequence (whole entry): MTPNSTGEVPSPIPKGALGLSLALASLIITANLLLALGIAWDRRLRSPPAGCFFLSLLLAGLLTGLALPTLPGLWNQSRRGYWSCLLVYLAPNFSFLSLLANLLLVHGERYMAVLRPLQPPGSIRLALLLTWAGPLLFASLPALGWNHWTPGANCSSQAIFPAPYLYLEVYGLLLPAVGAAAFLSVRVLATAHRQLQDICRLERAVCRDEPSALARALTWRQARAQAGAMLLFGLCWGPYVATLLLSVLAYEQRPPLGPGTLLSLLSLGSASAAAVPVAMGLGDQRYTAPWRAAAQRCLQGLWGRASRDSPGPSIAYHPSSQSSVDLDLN

The chains behind the UniProt entries cited, without tags or fusion partners. Where a name states a change or a piece, a line headed by the entry shows the natural chain unless it says otherwise.
UniProt P10276, whole entry: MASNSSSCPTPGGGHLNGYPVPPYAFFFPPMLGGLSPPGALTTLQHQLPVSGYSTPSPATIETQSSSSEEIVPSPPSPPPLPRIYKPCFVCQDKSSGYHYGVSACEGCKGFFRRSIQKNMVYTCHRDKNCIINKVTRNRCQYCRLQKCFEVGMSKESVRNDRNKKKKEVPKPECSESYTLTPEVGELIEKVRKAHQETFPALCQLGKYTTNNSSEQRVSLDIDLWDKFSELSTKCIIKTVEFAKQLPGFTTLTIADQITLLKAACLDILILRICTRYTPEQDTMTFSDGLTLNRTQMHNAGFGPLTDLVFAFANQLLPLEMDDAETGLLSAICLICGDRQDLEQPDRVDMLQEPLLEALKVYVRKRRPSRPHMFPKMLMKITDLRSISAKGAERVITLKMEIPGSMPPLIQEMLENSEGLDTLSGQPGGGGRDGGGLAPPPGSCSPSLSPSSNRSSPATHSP
UniProt P37231: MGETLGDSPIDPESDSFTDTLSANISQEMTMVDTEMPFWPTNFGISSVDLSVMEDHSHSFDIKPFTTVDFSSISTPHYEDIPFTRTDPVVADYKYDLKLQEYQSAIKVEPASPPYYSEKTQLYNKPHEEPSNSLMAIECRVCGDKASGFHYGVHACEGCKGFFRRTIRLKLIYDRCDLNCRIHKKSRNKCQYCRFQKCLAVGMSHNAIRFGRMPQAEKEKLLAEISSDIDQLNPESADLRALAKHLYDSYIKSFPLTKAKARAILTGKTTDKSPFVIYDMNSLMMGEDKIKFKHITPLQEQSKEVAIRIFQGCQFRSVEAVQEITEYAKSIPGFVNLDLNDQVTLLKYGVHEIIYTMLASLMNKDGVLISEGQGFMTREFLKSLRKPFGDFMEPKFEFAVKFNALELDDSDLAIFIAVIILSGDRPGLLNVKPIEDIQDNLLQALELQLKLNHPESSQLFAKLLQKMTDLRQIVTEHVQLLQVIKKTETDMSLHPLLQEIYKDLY
UniProt P55055, whole entry: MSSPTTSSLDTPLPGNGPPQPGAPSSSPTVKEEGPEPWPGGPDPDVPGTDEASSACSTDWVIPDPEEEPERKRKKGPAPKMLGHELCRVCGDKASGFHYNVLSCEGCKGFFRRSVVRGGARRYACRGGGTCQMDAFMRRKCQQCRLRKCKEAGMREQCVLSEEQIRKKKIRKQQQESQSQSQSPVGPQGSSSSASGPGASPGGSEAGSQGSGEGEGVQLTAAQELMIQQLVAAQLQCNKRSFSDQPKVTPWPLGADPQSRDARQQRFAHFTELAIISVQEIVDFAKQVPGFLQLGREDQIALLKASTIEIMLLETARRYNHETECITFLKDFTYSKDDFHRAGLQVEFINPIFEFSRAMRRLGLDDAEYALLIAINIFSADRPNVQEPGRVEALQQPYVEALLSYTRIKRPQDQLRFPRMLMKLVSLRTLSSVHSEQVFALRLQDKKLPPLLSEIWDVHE
UniProt Q13133, whole entry: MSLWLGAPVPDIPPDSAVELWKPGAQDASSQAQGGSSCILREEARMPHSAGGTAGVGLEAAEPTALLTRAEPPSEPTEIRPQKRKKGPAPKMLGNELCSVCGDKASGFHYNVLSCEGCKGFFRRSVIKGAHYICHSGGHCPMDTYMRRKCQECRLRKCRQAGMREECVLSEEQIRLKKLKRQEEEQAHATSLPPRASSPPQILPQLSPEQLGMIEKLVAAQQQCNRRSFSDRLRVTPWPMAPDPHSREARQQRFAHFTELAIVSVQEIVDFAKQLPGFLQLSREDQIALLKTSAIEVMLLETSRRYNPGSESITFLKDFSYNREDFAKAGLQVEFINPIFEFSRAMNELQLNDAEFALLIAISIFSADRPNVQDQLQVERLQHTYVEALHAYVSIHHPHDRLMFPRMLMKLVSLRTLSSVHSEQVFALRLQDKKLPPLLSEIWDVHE

[2] = molecular target: Retinoic acid receptor alpha (Homo sapiens) (UniProt P10276); assay: Agonist activity at human RARalpha transfected in human HuH7 cells assessed as receptor transactivation at 1 uM by luciferase reporter gene assay
[3] = molecular target: Peroxisome proliferator-activated receptor gamma (Homo sapiens) (UniProt P37231); assay: Agonist activity at human PPARgamma transfected in human HuH7 cells assessed as receptor transactivation at 1 uM by luciferase reporter gene assay
[4] = molecular target: T2, Retinoic acid receptor RXR-alpha (Homo sapiens) (UniProt P19793); assay: Agonist activity at human RXRalpha transfected in human HuH7 cells assessed as receptor transactivation at 1 uM by luciferase reporter gene assay
T2 sequence (whole entry): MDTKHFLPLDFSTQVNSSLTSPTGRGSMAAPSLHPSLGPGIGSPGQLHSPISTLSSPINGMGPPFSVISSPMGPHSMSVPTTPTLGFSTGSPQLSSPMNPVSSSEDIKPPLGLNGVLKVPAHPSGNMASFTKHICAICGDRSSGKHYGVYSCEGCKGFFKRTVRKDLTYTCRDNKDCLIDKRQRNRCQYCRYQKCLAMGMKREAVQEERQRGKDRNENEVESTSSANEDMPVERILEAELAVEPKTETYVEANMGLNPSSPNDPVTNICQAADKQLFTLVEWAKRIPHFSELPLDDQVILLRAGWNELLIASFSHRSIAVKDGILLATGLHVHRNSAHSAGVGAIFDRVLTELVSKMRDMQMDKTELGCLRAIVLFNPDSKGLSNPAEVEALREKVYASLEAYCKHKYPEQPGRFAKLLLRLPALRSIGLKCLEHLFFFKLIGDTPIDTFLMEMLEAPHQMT

[5] = molecular target: Oxysterols receptor LXR-beta (Homo sapiens) (UniProt P55055); assay: Agonist activity at human LXRbeta transfected in human HuH7 cells assessed as receptor transactivation at 1 uM by luciferase reporter gene assay
[6] = molecular target: T3, Peroxisome proliferator-activated receptor delta (Homo sapiens) (UniProt Q03181); assay: Agonist activity at human PPARdelta transfected in human HuH7 cells assessed as receptor transactivation at 1 uM by luciferase reporter gene assay
T3 sequence (whole entry): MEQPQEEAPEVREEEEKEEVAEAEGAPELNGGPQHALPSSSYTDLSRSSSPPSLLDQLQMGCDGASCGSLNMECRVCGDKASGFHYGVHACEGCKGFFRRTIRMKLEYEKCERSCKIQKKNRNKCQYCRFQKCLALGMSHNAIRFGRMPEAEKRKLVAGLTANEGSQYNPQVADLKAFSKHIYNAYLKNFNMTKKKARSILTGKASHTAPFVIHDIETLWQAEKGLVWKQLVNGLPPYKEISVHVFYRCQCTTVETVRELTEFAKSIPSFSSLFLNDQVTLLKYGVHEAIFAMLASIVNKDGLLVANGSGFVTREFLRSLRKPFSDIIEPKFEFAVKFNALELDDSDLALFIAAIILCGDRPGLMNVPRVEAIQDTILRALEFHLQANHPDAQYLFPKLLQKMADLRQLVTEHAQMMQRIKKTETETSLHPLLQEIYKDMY

[7] = molecular target: Oxysterols receptor LXR-alpha (Homo sapiens) (UniProt Q13133); assay: Agonist activity at human LXRalpha transfected in human HuH7 cells at 1 uM assessed as receptor transactivation by luciferase reporter gene assay
[8] = molecular target: T4, Peroxisome proliferator-activated receptor alpha (Homo sapiens) (UniProt Q07869); assay: Agonist activity at human PPARalpha transfected in human HuH7 cells assessed as receptor transactivation at 1 uM by luciferase reporter gene assay
T4 sequence (whole entry): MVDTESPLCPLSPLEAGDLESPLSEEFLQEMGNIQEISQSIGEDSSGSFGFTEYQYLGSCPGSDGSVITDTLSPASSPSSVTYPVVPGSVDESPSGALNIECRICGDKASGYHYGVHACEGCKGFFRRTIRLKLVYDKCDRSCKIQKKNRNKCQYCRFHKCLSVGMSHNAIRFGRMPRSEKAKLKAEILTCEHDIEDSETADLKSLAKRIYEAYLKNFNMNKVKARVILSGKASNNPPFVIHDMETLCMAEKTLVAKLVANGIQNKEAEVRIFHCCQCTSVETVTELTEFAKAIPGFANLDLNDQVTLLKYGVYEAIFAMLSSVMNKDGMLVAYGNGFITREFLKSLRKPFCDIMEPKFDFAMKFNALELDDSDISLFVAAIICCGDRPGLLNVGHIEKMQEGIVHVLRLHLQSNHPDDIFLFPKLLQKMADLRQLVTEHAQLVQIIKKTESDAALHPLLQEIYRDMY

Row | Activity [1] | Activity [2] | Activity [3] | Activity [4] | Activity [5] | Activity [6] | Activity [7] | Activity [8] | Structure (SMILES)
1 | inactive | inactive | inactive | inactive | inactive | inactive | inactive | inactive | CCC(CC)n1c(-c2ccc(OCc3c(-c4c(Cl)cccc4Cl)noc3C(C)C)cc2)nc2ccc(C(=O)O)cc21
2 | inactive | inactive | inactive | inactive | inactive | inactive | inactive | inactive | CCCC(CCC)n1c(-c2ccc(OCc3c(-c4c(Cl)cccc4Cl)noc3C(C)C)cc2)nc2ccc(C(=O)O)cc21
